# Results: ChEMBL document CHEMBL4043202, “Synthesis, pH dependent, plasma and enzymatic stability of bergenin prodrugs for potential use against rheumatoid arthritis” (Bioorg Med Chem, 2017)
# Test: Stability in pH 7.4 PBS buffer assessed as compound remaining level at 120 mg/mL incubated for 24 hrs at 37 degC by HPLC method
# Conditions: pH 7.4, 24 h
compound,measurement,value
COc1c(OC(=O)c2c([N+](=O)[O-])cc([N+](=O)[O-])cc2[N+](=O)[O-])cc2c(c1O)[C@@H]1O[C@H](COC(=O)c3c([N+](=O)[O-])cc([N+](=O)[O-])cc3[N+](=O)[O-])[C@@H](O)[C@H](O)[C@H]1OC2=O,Stability,32.3%
